Experimental data published in patent US10239903B2, “Pt (IV) derivatives and nanocarriers comprising them” (Yissum Research Development Company of the Hebrew …, priority 2014, dated 2019).

System: A2780-cisR cell line
Test: MTT cytotoxicity assay
Type: cell-based

With O=C1[O][Pt]2([NH][C@@H]3CCCC[C@H]3[NH]2)[O]C1=O [Oxaliplatin, reference compound] as the molecule, how does the resistance factor (calculated from IC50 values of dose-response curves, A2780-cisR vs A2780 (FIG. 10)) read?
The resistance factor was 5.2.

What about the “RF, resistance factor” value (ratio of IC50 in A2780-cisR to A2780) of the same molecule?
The value was 5.21.
